We go through four molecules from paper PMC6294515, “Structural basis of the specific interaction of SMRT corepressor with histone deacetylase 4” (Nucleic Acids Research, 2018).

The test system of one assay is HDAC4c. Description: Interaction with HDAC4c (yeast two-hybrid, GST pull-down, BiFC). As to conditions: yeast two-hybrid (β-galactosidase), BiFC in HEK293 cells, result in words.
The next assay concerns HDAC5c. Description: Interaction with HDAC5c (yeast two-hybrid, GST pull-down, BiFC). Conditions: yeast two-hybrid (β-galactosidase), in vitro GST pull-down, BiFC in HEK293 cells; result in words.
The test system of another assay is class I enzymes. Also on record: method as in PMID 10640275. Conditions: cited from earlier work.
The subject of a further assay is HDAC4c F871S. As to conditions: HDAC4c mutant versus wild-type; cited from earlier work. The source says:
(§1) Among the seven HDACs whose catalytic domain structures have been reported, HDAC4c is unique in that it has an open conformation when it binds to non-peptide molecules. In agreement with this, mutations at the ^+1GSI^+3 residues of two motifs and R+9 residue of the SM1 lead to a loss of its binding activity to HDAC4c/-5c (Figures 1 and 5). The class IIa HDAC-specific residues (D759, H842, and F871), which are located at the cleft to and entrance to the catalytic zinc-binding site, interact directly or indirectly with these residues of bound peptides (Figure 3D and E). Further, HDAC4c mutants o ...

The next assay deals with HDAC4c H842L. As to conditions: HDAC4c mutant versus wild-type; cited from earlier work.
From the text: as §1

In a further assay the test system is HDAC4c F871L. As to conditions: HDAC4c mutant versus wild-type; cited from earlier work.
From the text: as §1

A further assay relates to HDAC4c D759Y. Conditions: HDAC4c mutant versus wild-type; cited from earlier work.
From the text: as §1, with “Next, we analyzed the mutational effects of SM1 mutants by OPTHiS screening (Figure 5A). […] In the peptide-complex structures, G+1, S+2 and T+4 residues on both peptides interact, directly or through water molecules, with residues on the cleft wall of the structural zinc-binding subdomain (Figure 3E). Mutations in this peptide region (G+1R, S+2D and T+4N/T+4A) altered the binding affin ... || Among” for “Among”

The next assay relates to class IIa HDACs. Also on record: method as in PMID 10640275. Conditions: cited from earlier work.
Assay [1] concerns the target T1, human HDAC4c (R651-T1055) H976Y mutant (human, UniProt P56524 651-1055, H976Y).
T1 construct: histone deacetylase 4 (HDAC4), human, catalytic domain R651-T1055; also called HDAC4c H976Y; source: E. coli BL21 Star (DE3), purified (HisTrap, TEV digestion, HiTrap Q)
T1 sequence (looked up): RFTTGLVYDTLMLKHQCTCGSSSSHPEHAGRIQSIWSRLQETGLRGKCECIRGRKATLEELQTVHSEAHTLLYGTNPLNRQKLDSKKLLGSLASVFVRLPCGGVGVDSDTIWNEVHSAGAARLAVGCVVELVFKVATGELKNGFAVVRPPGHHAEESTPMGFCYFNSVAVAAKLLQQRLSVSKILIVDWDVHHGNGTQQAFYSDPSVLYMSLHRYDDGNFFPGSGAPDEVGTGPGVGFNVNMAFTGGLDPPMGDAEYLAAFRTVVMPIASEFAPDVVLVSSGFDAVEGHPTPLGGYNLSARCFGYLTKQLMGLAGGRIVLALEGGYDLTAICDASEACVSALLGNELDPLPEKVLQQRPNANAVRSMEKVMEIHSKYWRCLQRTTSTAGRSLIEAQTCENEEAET
In words: ITC; 25 injections of peptide (2.25 mM) into HDAC4c H976Y (0.113 mM); 20°C; 20 mM Tris-HCl pH 7.5, 200 mM NaCl, 0.1% NP-40, 0.5 mM TCEP; independent binding sites model. Conditions: both partners purified.

“SM1F: 40-amino acid fragment containing SM1 in the middle (E1346-L1385)”: the “binding to HDAC4c” value in the assay with HDAC4c is given as “better binding activity of SM1F than SM2F to all HDACs”. Moreover, the “binding to HDAC5c” value in the assay with HDAC5c was “better binding activity of SM1F than SM2F to all HDACs”.

B1: SRD3c: C-terminal region of SMRT repression domain 3 (K1316-S1515 of human SMRT) (protein, UniProt Q9Y618 1316-1515, looked up, fragment)
chain: GRVGRAISSASIEGLMGRAIPPERHSPHHLKEQHHIRGSITQGIPRSYVEAQEDYLRREAKLLKREGTPPPPPPSRDLTEAYKTQALGPLKLKPAHEGLVATVKEAGRSIHEIPREELRHTPELPLAPRPLKEGSITQGTPLKYDTGASTTGSKKHDVRSLIGSPGRTFPPVHPLDVMADARALERACYEESLKSRPGTA
As for B1, in the assay on class I enzymes, the “interaction with class I HDACs” value is on record as “not with class I enzymes”. For the same molecule, the “binding affinity to HDAC4c F871S” value with HDAC4c F871S was “decreased binding affinities”. Besides, in the assay with HDAC4c H842L, the “binding affinity to HDAC4c H842L” value is “decreased binding affinities”. Besides, the “binding affinity to HDAC4c F871L” value in the assay with HDAC4c F871L is given as “decreased binding affinities”. Also, the “binding affinity to HDAC4c D759Y” value in the assay with HDAC4c D759Y is given as “decreased binding affinities”. Also, the “interaction with class IIa HDACs” value in the assay with class IIa HDACs is given as “specifically interacts with class IIa HDACs”.

B2: SP1 (peptide)
peptide: HIRGSITQGIPRSYV
notes: human SMRT peptide around motif SM1, printed as -3 to +12 (+1 = G1361); also called SMRT peptide SP1; source: synthetic peptide (Anygen)
On to B2, for which, in assay [1], the dissociation constant (Kd) turned out to be 2.23 µM, the dH is -11.2 kcal/mol and the “stoichiometry N” value was 0.82.

B3: SP2 (peptide)
peptide: KEGSITQGTPLKY
notes: human SMRT peptide around motif SM2, printed as -2 to +11 (+1 = G1457); also called SMRT peptide SP2; source: synthetic peptide (Anygen)
For B3, in [1], the Kd stood at 18.8 µM, the dH was -7.01 kcal/mol and the “stoichiometry N” value amounted to 0.977.
